Target: HIV integrase (Human immunodeficiency virus type 1 group M subtype B, UniProt P04585)
Experiment: biochemical

Row | Compound | IC50 [nM]
1 | CN(c1c2c(c(O)c3ncccc13)C(=O)N(Cc1ccc(F)cc1)C2)S(=O)(=O)CCCn1ccnc1 [Compound 49, N-(7-(4-fluorobenzyl)-9-hydroxy-8-oxo-7,8-dihydro-6H-pyrrolo[3,4-g]quinolin-5-yl)-3-(1 H-imidazol-1-yl)-N-methylpropane-1-sulfonamide] | 60 to 1000
2 | CN(c1c2c(c(O)c3ncccc13)C(=O)N(Cc1ccc(F)cc1)C2)S(=O)(=O)CCCN1CCOCC1 [Compound 46, N-(7-(4-fluorobenzyl)-9-hydroxy-8-oxo-7,8-dihydro-6H-pyrrolo[3,4-g]quinolin-5-yl)-N-methyl-3-morpholinopropane-1-sulfonamide] | < 60
3 | CN(c1c2c(c(O)c3ncccc13)C(=O)N(Cc1ccc(F)cc1)C2)S(=O)(=O)CCCC#N [Compound 48, 3-cyano-N-(7-(4-fluorobenzyl)-9-hydroxy-8-oxo-7,8-dihydro-6H-pyrrolo[3,4-g]quinolin-5-yl)-N-methylpropane-1-sulfonamide] | < 60
